Data: patent US12415770B2, “Modulators of liver receptor homologue 1 (LRH-1) and uses” (Emory University, priority 2017, dated 2025)

By UniProt entry, the sequences of proteins in these tests, tags left out. Residues count along the entry.
UniProt O00482, whole entry: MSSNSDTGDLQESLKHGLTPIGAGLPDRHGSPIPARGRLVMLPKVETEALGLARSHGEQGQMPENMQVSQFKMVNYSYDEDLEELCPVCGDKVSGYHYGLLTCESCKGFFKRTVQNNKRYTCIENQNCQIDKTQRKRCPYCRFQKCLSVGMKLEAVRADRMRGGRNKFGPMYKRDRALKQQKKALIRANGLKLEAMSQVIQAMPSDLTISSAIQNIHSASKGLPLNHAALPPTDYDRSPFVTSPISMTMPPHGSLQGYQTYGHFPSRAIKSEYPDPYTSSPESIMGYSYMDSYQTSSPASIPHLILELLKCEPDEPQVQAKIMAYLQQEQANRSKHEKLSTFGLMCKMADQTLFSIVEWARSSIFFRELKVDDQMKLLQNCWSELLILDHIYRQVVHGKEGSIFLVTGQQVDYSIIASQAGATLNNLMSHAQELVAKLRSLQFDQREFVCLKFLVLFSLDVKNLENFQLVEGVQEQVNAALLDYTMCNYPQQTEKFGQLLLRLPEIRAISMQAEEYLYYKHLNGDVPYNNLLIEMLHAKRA
UniProt O00482, 299-541: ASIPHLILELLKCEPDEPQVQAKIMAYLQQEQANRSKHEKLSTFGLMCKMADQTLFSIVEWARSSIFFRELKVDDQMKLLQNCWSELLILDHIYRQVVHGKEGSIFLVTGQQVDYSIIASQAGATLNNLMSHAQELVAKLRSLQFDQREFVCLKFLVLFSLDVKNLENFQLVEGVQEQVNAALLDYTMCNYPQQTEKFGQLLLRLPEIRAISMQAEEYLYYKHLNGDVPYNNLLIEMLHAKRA

Key:
LRH-1 = target: T1, LRH-1 (Homo sapiens, UniProt O00482); experiment: Luciferase reporter assay (SHP-luc) in HeLa cells transfected with full-length LRH-1; type: cell-based; conditions: for EC50 (μM): HeLa cells, SHP-luc reporter, 24 hours, 0.03-30 μM
T1 construct: The transfected plasmids included full-length LRH-1 in a pCI vector; expressed in transfected cells; host or cells: HeLa
Description: EC50 and Relative Activity values were calculated from luciferase reporter assays.

LRH-1 LBD = target: T2, LRH-1 LBD (Homo sapiens, UniProt O00482); experiment: Thermofluor (DSF) assay, purified LRH-1 LBD-His protein; type: binding; conditions: 50 μM compound; relative to DLPC-bound LRH-1; read-out: ΔTm (mean +/− SEM) (° C.)
T2 construct: LRH-1 LBD (residues 299-541) in the pMSC7 vector was expressed in BL21 (DE3) pLysS E. coli; made in house; host or cells: E. coli BL21 (DE3) pLysS
Description: Thermofluor assays—Purified LRH-1 LBD-His protein (0.2 mg/ml) was incubated overnight with 50 μM of each compound at 4° C. The final DMSO concentration in the reactions was 1%. SYPRO orange dye (Invitrogen) was then added at a 1:1000 dilution. Reactions were heated at a rate of 0.5° C. per minute, using a StepOne Plus Real Time PCR System (ThermoFisher). […] Data were analyzed by first subtracting baseline fluorescence (ligands+SYPRO with no protein) and then fitting the curves using the Bolzman equation (GraphPad Prism, v6) to determine the Tm. […]

Row | EC50 (μM) (LRH-1) | ΔTm at 50 µM (LRH-1 LBD) [°C] | Relative Efficacy (LRH-1; fold increase over baseline (DMSO-treated cells) relative to the fold increase induced by RJW100) | Compound
1 | cnc | 0.6 |  | C=C(c1ccccc1)[C@@]12CC[C@@H](n3ccnn3)C1CC(CCCCCC)=C2c1ccccc1 (stereo partly drawn) [Compound 34-exo, (Endo or Exo) 5-hexyl-4-phenyl-3a-(1-phenylvinyl)-1,2,3,3a,6,6a-hexahydropentalen-1-yl)-1H-1,2,3-triazole]
2 |  | 1.4 |  | CCCCCCC1=C(c2ccccc2)[C@]2(Cc3ccccc3)CC[C@@H](O)C2C1 (mixture of isomers) [Compound 26-exo, (Exo)-3a-benzyl-5-hexyl-4-phenyl-1,2,3,3a,6,6a-hexahydropentalen-1-ol]
3 |  | 1 |  | CCCCCCC1=C(c2ccccc2)[C@]2(C(=O)c3ccccc3)CC[C@@H](O)C2C1 (stereo partly drawn) [Compound 25-exo]
4 |  | 3.6 |  | C=C(c1ccccc1)[C@@]12CC[C@H](n3ccnn3)C1CC(CCCCCC)=C2c1ccccc1 (stereo partly drawn) [Compound 34-endo, (Endo or Exo) 5-hexyl-4-phenyl-3a-(1-phenylvinyl)-1,2,3,3a,6,6a-hexahydropentalen-1-yl)-1H-1,2,3-triazole]
5 | cnc | -3.1 | −0.14 | C=C(Cc1ccccc1)[C@@]12CC[C@@H](O)C1CC(CCCCCC)=C2c1ccccc1 (mixture of isomers) [Compound 24, (Exo)-5-hexyl-4-phenyl-3a-(3-phenylprop-1-en-2-yl)-1,2,3,3a,6,6a-hexahydropentalen-1-ol]
